Laboratory results published in article PMC3794980, “Identification of Conserved and HLA Promiscuous DENV3 T-Cell Epitopes” (PLoS Neglected Tropical Diseases, 2013).

Chains of the proteins cited; added tags and fusions are not shown. Residues count along the entry.
UniProt Q30154, 30-266: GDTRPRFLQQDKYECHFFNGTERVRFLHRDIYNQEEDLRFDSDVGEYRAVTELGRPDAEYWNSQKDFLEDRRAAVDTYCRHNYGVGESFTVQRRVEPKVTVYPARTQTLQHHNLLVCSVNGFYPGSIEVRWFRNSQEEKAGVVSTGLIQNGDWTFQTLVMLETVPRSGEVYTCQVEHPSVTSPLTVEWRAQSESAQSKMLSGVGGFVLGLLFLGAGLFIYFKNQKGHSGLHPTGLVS

What was measured:
DRB4*0101 = DRB4*0101 (Homo sapiens, UniProt P01903+P13762, G164S); assay: biochemical; format: binding; conditions: for IC50: read-out: Binding Affinity (nM) DRB4*0101
DRB1*0301 = DRB1*0301 (Homo sapiens, UniProt P01903+P01911, A100K/A102G/A103R/A169T/F55Y/I96L/K41T/L162R/M171V/P40S/Q125H/Q178H/Q39Y/R42S/S66N/T106N/T262R/W38E/Y61H); assay: biochemical; format: binding
DRB5*0101 = DRB5*0101 (Homo sapiens, UniProt P01903+Q30154); assay: biochemical; format: binding; conditions: for IC50: read-out: Binding Affinity (nM) DRB5*0101
DRB1*0404 = DRB1*0404 (Homo sapiens, UniProt P01903+P01911, A100R/A169T/F76Y/I96L/K127E/L162R/M171V/N62H/P40V/Q125Y/R42H/S133A/S149N/S66Y/V209L/W38E); assay: biochemical; format: binding; conditions: for IC50: read-out: Binding Affinity (nM) DRB1*0404
DRB1*1501 = DRB1*1501 (Homo sapiens, UniProt P01903+P01911); assay: biochemical; format: binding; conditions: for IC50: read-out: Binding Affinity (nM) DRB1*1501
DRB1*0901 = DRB1*0901 (Homo sapiens, UniProt P01903+P01911, A100R/A103E/D57H/D86V/F55Y/F60I/F76Y/I96F/K127E/L162R/M171V/P40D/Q125H/Q99R/R33Q/R42F/S133A/S66N/T210M/V115G/W38K/Y107V/Y59G/Y89S); assay: biochemical; format: binding; conditions: for IC50: read-out: Binding Affinity (nM) DRB1*0901
DRB1*0802 = DRB1*0802 (Homo sapiens, UniProt P01903+P01911, A100R/A103L/A169T/F76Y/H45Y/I96F/K41T/L162R/M171V/P40S/Q125H/Q178H/Q39Y/Q99D/R218S/R42G/S66Y/V115G/W38E); assay: biochemical; format: binding
DRB1*1302 = DRB1*1302 (Homo sapiens, UniProt P01903+P01911, A100E/A169T/K41T/L162R/M171V/P40S/Q125H/Q178H/Q39Y/Q99D/R42S/S66N/T262R/V115G/W38E/Y61H); assay: biochemical; format: binding; conditions: for IC50: competitive inhibition of radiolabeled standard peptide, DRB1*1302, read-out: Binding Affinity (nM) DRB1*1302
DRB1*0701 = DRB1*0701 (Homo sapiens, UniProt P01903+P01911, A100R/A102G/A103Q/D57E/D86V/E43K/F76Y/K127E/L162R/M171V/P40G/Q125H/Q99D/R33Q/R42Y/R54Q/S133A/S66F/T210M/V115G/Y107V/Y59L/Y89S); assay: biochemical; format: binding
DRB1*0405 = DRB1*0405 (Homo sapiens, UniProt P01903+P01911, A100R/A169T/D86S/F76Y/I96L/K127E/L162R/M171V/N62H/P40V/Q125Y/R42H/S133A/S149N/S66Y/V115G/V209L/W38E); assay: biochemical; format: binding; conditions: for IC50: read-out: Binding Affinity (nM) DRB1*0405
DRB1*0101 = DRB1*0101 (Homo sapiens, UniProt P01903+P01911, A100R/D57E/F55L/F60I/F76Y/I96L/L162R/M171V/P40L/Q125E/R42F/V115G/Y59C); assay: biochemical; format: binding
DRB1*1101 = DRB1*1101 (Homo sapiens, UniProt P01903+P01911, A100R/A169T/A87E/I96F/K41T/L162R/M171V/P40S/Q125H/Q178H/Q39Y/Q99D/R42S/S66Y/T262R/V115G/W38E); assay: biochemical; format: binding; conditions: for IC50: read-out: Binding Affinity (nM) DRB1*1101
DRB1*0401 = DRB1*0401 (Homo sapiens, UniProt P01903+P01911, A100K/A169T/F76Y/I96L/K127E/L162R/M171V/N62H/P40V/Q125Y/R42H/S133A/S149N/S66Y/V115G/V209L/W38E); assay: biochemical; format: binding
[1] = test system: HLA of the TgM (A02, A24, B07, DR2, DR3, DR4); assay: HLA binding assays, summary of HLA affinity confirmed; parameters: species or system human; conditions: ND: non-determined
[2] = test system: HLA transgenic mice (A02, A24, B07, DR2, DR3 and DR4); assay: Immunogenicity screen in six HLA transgenic mice strains (summary); format: in vivo; conditions: IFN-γ ELISPOT in six TgM strains; Negative = none
[3] = competitive inhibition of radiolabeled standard peptide, DRB1*0901

Compound | pIC50 (DRB1*0301) | IC50 (DRB5*0101) | pIC50 (DRB1*0404) | pIC50 (DRB1*1501) | pIC50 (DRB1*0901) | pIC50 (DRB1*0802) | pIC50 (DRB1*1302) | pIC50 (DRB1*0701) | IC50 (DRB4*0101) | IC50 (DRB1*0405) | pIC50 (DRB1*0101) | pIC50 (DRB1*1101) | pIC50 (DRB1*0401) | also measured
CC[C@H](C)[C@H](NC(=O)CNC(=O)[C@@H](NC(=O)[C@H](C)NC(=O)[C@@H](NC(=O)[C@H](CS)NC(=O)[C@@H](N)CO)[C@@H](C)CC)[C@@H](C)CC)C(=O)N[C@H](C(=O)N[C@H](C(=O)N[C@@H](CC(C)C)C(=O)N[C@@H](Cc1ccc(O)cc1)C(=O)N[C@@H](CC(C)C)C(=O)NCC(=O)N[C@@H](C)C(=O)N[C@H](C(=O)N[C@H](C(=O)N[C@@H](CCC(N)=O)C(=O)N[C@@H](C)C(=O)O)C(C)C)C(C)C)[C@@H](C)O)[C@@H](C)CC [Envelope 476-493] | 5.34 | > 20000 nM | 5.09 | 5.64 | 5.76 | 5.78 | 5.88 | 5.51 |  |  |  |  |  | pIC50 (DRB4*0101): 5.20
CC[C@H](C)[C@H](NC(=O)[C@@H](NC(=O)[C@H](CC(C)C)NC(=O)[C@H](CC(N)=O)NC(=O)[C@H](CCCNC(=N)N)NC(=O)[C@H](CCCCN)NC(=O)[C@H](CCCCN)NC(=O)[C@H](Cc1ccccc1)NC(=O)[C@H](CCSC)NC(=O)[C@H](CCC(=O)O)NC(=O)[C@H](CCC(=O)O)NC(=O)[C@H](CCC(=O)O)NC(=O)[C@H](CC(C)C)NC(=O)[C@H](CCC(=O)O)NC(=O)[C@@H]1CCCN1)[C@@H](C)O)C(=O)O [NS3 177-191] | 5.73 | > 20000 nM |  | 4.77 | 4.83 |  | 4.86 |  | > 20000 nM | > 20000 nM | 5.20 | 4.93 | 5.15 | IC50 (DRB1*0404): > 20000 nM; IC50 (DRB1*0802; read-out: Binding Affinity (nM) DRB1*0802): > 20000 nM; IC50 (DRB1*0701; read-out: Binding Affinity (nM) DRB1*0701): > 20000 nM
CC[C@H](C)[C@H](NC(=O)[C@H](Cc1c[nH]c2ccccc12)NC(=O)[C@H](CCC(=O)O)NC(=O)[C@@H](N)CC(N)=O)C(=O)N[C@H](C(=O)N[C@@H](CC(=O)O)C(=O)N[C@@H](Cc1ccccc1)C(=O)N[C@@H](C)C(=O)NCC(=O)N[C@@H](CCCCN)C(=O)N[C@H](C(=O)N[C@H](C(=O)N[C@@H](Cc1c[nH]c2ccccc12)C(=O)N[C@@H](Cc1ccccc1)C(=O)N[C@H](C(=O)O)C(C)C)C(C)C)[C@@H](C)O)[C@@H](C)O [NS3 349-363] | 5.16 | > 20000 nM | 5.09 | 6.22 |  | 5.60 |  | 5.48 |  |  | 5.78 |  | 5.94 | pIC50 (DRB1*0405): 4.79; IC50 (DRB1*1101): > 20000 nM; IC50 (DRB1*0901; [3]): 8480 nM; IC50 (DRB1*1302): > 20000 nM
CC[C@H](C)[C@H](NC(=O)[C@@H](NC(=O)[C@H](CCCNC(=N)N)NC(=O)[C@H](CC(=O)O)NC(=O)[C@H](C)NC(=O)[C@H](CCCCN)NC(=O)[C@H](Cc1ccccc1)NC(=O)[C@@H](N)CC(N)=O)C(C)C)C(=O)N[C@@H](CC(=O)O)C(=O)N1CCC[C@H]1C(=O)N[C@@H](CCCNC(=N)N)C(=O)N[C@@H](CCCNC(=N)N)C(=O)N[C@@H](CS)C(=O)N[C@@H](CC(C)C)C(=O)N[C@@H](CCCCN)C(=O)O [NS3 417-431] |  |  | 4.73 | 5.51 | 4.88 | 4.79 | 5.33 | 5.10 | > 20000 nM |  | 5.76 |  |  | pIC50 (DRB5*0101): 5.32
CC[C@H](C)[C@H](NC(=O)[C@H](Cc1ccc(O)cc1)NC(=O)[C@H](CCC(N)=O)NC(=O)[C@H](CC(=O)O)NC(=O)[C@H](CC(N)=O)NC(=O)[C@H](CCC(=O)O)NC(=O)[C@H](CCCCN)NC(=O)[C@H](CCC(N)=O)NC(=O)[C@@H]1CCCN1C(=O)[C@@H](N)CC(N)=O)C(=O)N[C@@H](Cc1ccccc1)C(=O)N[C@H](C(=O)NCC(=O)N[C@@H](CCC(N)=O)C(=O)N1CCC[C@H]1C(=O)O)[C@@H](C)O [NS3 465-479] | 4.80 | > 20000 nM | 5.01 |  |  | 5.03 |  | 4.77 | > 20000 nM | > 20000 nM | 5.17 |  | 4.93 | IC50 (DRB1*1101): > 20000 nM; IC50 (DRB1*1501): > 20000 nM; IC50 (DRB1*0901; [3]): > 20000 nM; IC50 (DRB1*1302): 18100 nM
CC[C@H](C)[C@H](NC(=O)CNC(=O)[C@H](CO)NC(=O)[C@H](CCCCN)NC(=O)[C@@H](N)CCCCN)C(=O)N[C@H](C(=O)N[C@@H](CCC(=O)O)C(=O)N[C@H](C(=O)N[C@@H](CC(=O)O)C(=O)N[C@@H](CCCNC(=N)N)C(=O)N[C@H](C(=O)N[C@@H](CCC(=O)O)C(=O)N[C@@H](C)C(=O)N[C@@H](CCCCN)C(=O)N[C@@H](CCC(=O)O)C(=O)NCC(=O)N[C@@H](CC(C)C)C(=O)O)[C@@H](C)O)C(C)C)[C@@H](C)O [NS5 29-45] | 7.10 | > 20000 nM | 5.15 |  |  | 5.24 | 5.71 |  | > 20000 nM | > 20000 nM | 5.14 | 6.54 | 5.86 | IC50 (DRB1*1501): > 20000 nM; IC50 (DRB1*0901): > 20000 nM
CC[C@H](C)[C@H](NC(=O)[C@H](CCC(=O)O)NC(=O)CNC(=O)[C@H](CCCNC(=N)N)NC(=O)[C@H](CCCCN)NC(=O)[C@H](CC(C)C)NC(=O)CNC(=O)[C@H](CCC(=O)O)NC(=O)[C@H](CCCCN)NC(=O)[C@H](C)NC(=O)[C@H](CCC(=O)O)NC(=O)[C@@H](N)[C@@H](C)O)C(=O)N[C@H](C(=O)N[C@@H](Cc1c[nH]cn1)C(=O)N[C@@H](Cc1c[nH]cn1)C(=O)N[C@@H](C)C(=O)N[C@H](C(=O)O)C(C)C)[C@@H](C)O [NS5 39-55] | 5.58 | > 20000 nM |  | 5.50 |  | 5.44 |  | 4.76 |  | > 20000 nM | 4.92 | 5.06 | 5.49 | IC50 (DRB1*0404): > 20000 nM; IC50 (DRB1*0901; [3]): 16300 nM; IC50 (DRB1*1302): > 20000 nM
CC[C@H](C)[C@H](NC(=O)[C@@H]1CCCN1C(=O)[C@H](CCCCN)NC(=O)[C@@H](NC(=O)[C@@H](NC(=O)[C@H](CS)NC(=O)[C@@H](N)CC(=O)O)C(C)C)C(C)C)C(=O)N[C@@H](CC(=O)O)C(=O)N[C@@H](CC(=O)O)C(=O)N[C@@H](CCCNC(=N)N)C(=O)N[C@@H](Cc1ccccc1)C(=O)N[C@@H](C)C(=O)N[C@@H](CC(N)=O)C(=O)N[C@@H](C)C(=O)N[C@@H](CC(C)C)C(=O)N[C@@H](CC(C)C)C(=O)N[C@@H](C)C(=O)O [NS5 664-680] | 5.16 | > 20000 nM | 5.30 |  | 5.44 |  |  | 5.40 |  |  |  | 5.29 |  | pIC50 (DRB4*0101): 5.81
EEMFKKRNLTIMDLH [NS3_181–195, DENV3 NS3 15-mer overlapping library peptide] |  |  |  |  |  |  |  |  |  |  |  |  |  | Binding assay (HLA to which affinity was found) [1]: DR2; TGM (HLA transgenic mice in which the peptide was immunogenic) [2]: DR2
IRYQTTATKSEHTGR [NS3_241–255, DENV3 NS3 15-mer overlapping library peptide] |  |  |  |  |  |  |  |  |  |  |  |  |  | Binding assay (HLA to which affinity was found) [1]: DR4; TGM (HLA transgenic mice in which the peptide was immunogenic) [2]: DR4
KGLPIRYQTTATKSE [NS3_237–251, DENV3 NS3 15-mer overlapping library peptide] |  |  |  |  |  |  |  |  |  |  |  |  |  | Binding assay (HLA to which affinity was found) [1]: DR2, DR4; TGM (HLA transgenic mice in which the peptide was immunogenic) [2]: DR4

pIC50: −log10 of the molar value. Read-outs that look alike come from different tables or passages of the source.
